Hits are enriched below; roughly 16% of the tested compounds scored in any of these assays.
DT40 TDP1 no CPT = qHTS for Inhibitors of human tyrosyl-DNA phosphodiesterase 1 (TDP1): qHTS in cells in absence of CPT; DT40 Tdp1-/- hTDP1 cells, no CPT, ATP luminescence, 48 h; Potency, µM (doses to about 46.2 µM), for the others: at the top dose activity change, negative = growth inhibition, most hits filed as inhibitors; 420,000 tested, 15% active; note: potency is the fitted concentration of half-maximal effect; % is set by controls: 0 for no effect and ±100 for the full control effect; nearly all actives have a fitted effect of over 55% in size
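Compound effects on proliferation are scored in DT40 Tdp1-/-;hTDP1 cells in the absence of CPT. ATP levels (CellTiter-Glo luminescence) are recorded after a ≥48 hr, 37 °C incubation.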
miR-21 reporter = miR-21 reporter, rising signal | Potency, µM (highest dose often 38.3 µM), for inactives: at the highest dose reporter change, positive = more light | 340,000 tested, under 10 active | HeLa miR-21 FLuc reporter, luciferase, 48 h; active = well fitted rising curve with a large enough effect; inconclusive = small, poorly fitted or top-dose-only effect; inactive = no such curve, though single readings can be large or run the other way;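 note: % of control where 0% means no effect; miR-21 action dims this reporter so a rising signal means less miR-21 action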
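Luminescence from a firefly luciferase reporter carrying a miR-21 binding site downstream, stably expressed under a CMV promoter in HeLa cells that make miR-21 endogenously, reports miRNA modulation after 48 h compound exposure up to approximately 40uM final.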
TDP1 block = TDP1 (human) enzyme inhibition | Q9NUW8 | recombinant TDP1, AlphaScreen DNA substrate cleavage | Potency, µM (doses to about 130 µM), without a hit: at the highest dose activity change, negative = inhibition, usual class: inhibitors | 350,000 tested, 0.28% active | AID 485290; note: potency is the fitted concentration of half-maximal effect; % is set by controls: 0 for no effect and ±100 for the full control effect; nearly all actives have a fitted effect of over 40% in size
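Recombinant human Tdp1 (E. coli-expressed, 1 nM final) preincubated with compounds 15 min at room temperature, then 5'-biotin/3'-phosphotyrosine-FITC DNA substrate (15 nM final) added for 5 min. AlphaScreen beads (10 ug/ml final) added 10 min; cleavage lowers signal.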
uPA surface inh = inhibitors of cell surface uPA generation; cell surface uPA generation assay, qHTS; Potency, µM (titrated, usually from 38.3 µM), for inactives: top-dose activity change, negative = inhibition, usual class: inhibitors; 330,000 tested, 0.31% active; AID 540303; active = well fitted inhibition curve with a large enough effect; inconclusive = small, poorly fitted or top-dose-only effect; inactive = no such curve, though single readings can be large or run the other way; tested in mouse RAW 264.7 cells; note: potency is the fitted concentration of half-maximal effect; % is set by controls: 0 for no effect and ±100 for the full control effect; nearly all actives have a fitted effect of over 55% in size
TDP1 cell CPT = growth inhibition of DT40 Tdp1-/-;hTDP1 cells with camptothecin (screen for TDP1 inhibitors); 420,000 tested, 12% active; Potency, µM (top dose mostly 46.2 µM), without a hit: top-dose activity change, negative = growth inhibition, most hits filed as inhibitors; chicken DT40 Tdp1-/-;hTDP1 cells + 20 nM CPT, ATP luminescence, 48 h; note: potency is the fitted concentration of half-maximal effect; % is set by controls: 0 for no effect and ±100 for the full control effect; nearly all actives have a fitted effect of over 55% in size
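Chicken DT40 Tdp1-/- cells stably complemented with human TDP1 were seeded at 400 cells/well in medium containing 20 nM camptothecin, exposed to pin-transferred compounds, and grown at 37 °C for at least 48 hr. Viability was read as ATP luminescence.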
Starred values were filed as active, the others as inactive; ? = inconclusive; / = not tested or not shown; [ ] = dose if it differs, or a comment. Unless noted, calls come from the whole dose curve; as a rule, active = well fitted curve in the direction sought with a large enough effect; inconclusive = small, poorly fitted or top-dose-only effect, or another doubt; inactive = no such curve, though single readings can be large; an effect the other way counts as inactive or inconclusive.

SMILES | DT40 TDP1 no CPT | miR-21 reporter | TDP1 block | uPA surface inh | TDP1 cell CPT
CCOC(=O)[C@]12CCCC=C1N(Cc1ccc3c(c1)OCO3)C(=O)[C@H](CC(=O)N1CCCCC1)C2 | 15µM* | / | / | / | 13µM*
CCOC(=O)[C@]12CCCC=C1N(Cc1ccc3c(c1)OCO3)C(=O)[C@H](CC(=O)N1CCCC1)C2 | 21µM* | / | / | / | ?
FC(F)(F)c1cccc(-c2ccc(-c3csnn3)o2)c1 | -5% | -15% | -6% | 5% | -7%
Cc1cccnc1NC(=O)CNC(=O)C12CC3CC(CC(Cl)(C3)C1)C2 | -12% | / | 0% | 5% | -2%
COCCCN(Cc1cccs1)S(=O)(=O)c1c[nH]c(C(=O)OC)c1 | 5% | 0% | 1% | -7% | 1%
COC(=O)[C@H]1[C@H]2C[C@@H]3c4[nH]c5ccccc5c4CCN3C[C@H]2C[C@@H](OC(=O)c2cc(OC)c(OC)c(OC)c2)[C@@H]1OC | 15µM* | / | / | / | 1.1µM*
COC(=O)[C@H]1C(OC)[C@@H](OC(=O)c2cc(OC)c(OC)c(OC)c2)C[C@@H]2CN3CCc4c([nH]c5cc(OC)ccc45)[C@H]3C[C@H]21 (some centres not stated) | ? | / | 20%[56.1 µM] | / | ?
COc1cccc(C2c3[nH]c4ccccc4c3CCN2C(=O)c2ccccc2F)c1OC (configuration not stated) | -97% | -6% | 6% | -7% | ?
COc1ccc(C2c3[nH]c4ccccc4c3CCN2C(=O)c2cc3ncccn3n2)c(F)c1 (configuration not stated) | 21µM* | 12% | 10% | -6% | 0%
COc1cc(C(=O)N2CCc3c([nH]c4ccccc34)C2c2ccccc2)cc(OC)c1OC (configuration not stated) | 6.5µM* | 26% | 11% | / | 7.3µM*
COc1ccc(C2c3[nH]c4ccccc4c3CCN2C(=O)c2cn3ccccc3n2)c(F)c1 (configuration not stated) | ? | -12% | 5% | -6% | -2%
COc1cc(C(=O)N2CCc3c([nH]c4ccccc34)C2c2ccc(C)cc2)cc(OC)c1OC (configuration not stated) | ? | -9% | 11% | / | 16µM*
CCOC(=O)C1=C(c2ccccc2)NC(=O)NC1c1ccc(N(C)C)cc1 (configuration not stated) | -25% | -8% | -5% | -1% | -38%
O=S(=O)(c1ccc(-c2cc(C(F)(F)F)on2)s1)N1CCN(c2ccccc2)CC1 | ? | -1% | 5% | / | ?
Cc1ccc(Cn2c(N/N=C/c3ccncc3)nc3c2c(=O)n(C)c(=O)n3C)cc1 | 18µM* | 4% | 7% | -25% | ?

Reprinted from the part before: 4 entries, then new ones.
SMILES | DT40 TDP1 no CPT | miR-21 reporter | TDP1 block | uPA surface inh | TDP1 cell CPT
COc1cc(C(=O)N2CCc3c([nH]c4ccccc34)C2c2ccc(C)cc2)cc(OC)c1OC (configuration not stated) | ? | -9% | 11% | / | 16µM*
CCOC(=O)C1=C(c2ccccc2)NC(=O)NC1c1ccc(N(C)C)cc1 (configuration not stated) | -25% | -8% | -5% | -1% | -38%
O=S(=O)(c1ccc(-c2cc(C(F)(F)F)on2)s1)N1CCN(c2ccccc2)CC1 | ? | -1% | 5% | / | ?
Cc1ccc(Cn2c(N/N=C/c3ccncc3)nc3c2c(=O)n(C)c(=O)n3C)cc1 | 18µM* | 4% | 7% | -25% | ?
COc1cc(/C=N/Nc2nc3c(c(=O)n(C)c(=O)n3C)n2Cc2ccccc2)ccc1OC(=O)c1ccco1 | 5.2µM* | -3% | 3% | 8% | 5.8µM*
CCOC(=O)CC(NC(=O)c1cc2cc(Br)ccc2oc1=O)c1cccc([N+](=O)[O-])c1 (configuration not stated) | -29% | -8% | -5% | -2% | -22%
O=S1(=O)C=C(SCc2ccc(Cl)c(Cl)c2)Nc2ccccc21 | ? | 11% | -2% | -9% | 23µM*
Nc1nc(SCc2ccc(Cl)c(Cl)c2)n[nH]1 | -21% | -48% | -3% | 3% | ?
COc1ccc(CNC(=O)COc2ccc(C(=O)c3ccc(F)cc3)cc2)cc1 | 4.6µM* | 21% | -8% | -14% | 2.6µM*
O=C(COc1ccc(C(=O)c2ccc(F)cc2)cc1)NCc1ccc(F)cc1 | 4.6µM* | ? | -8% | -10% | 3.3µM*
O=C1NCCN(Cc2ccc(F)cc2)C1=O | 0% | -1% | -1% | / | 0%
COc1ccc(OC)c(N(CC(=O)N2CCN(c3cc(Cl)ccc3C)CC2)S(C)(=O)=O)c1 | ? | 12% | 5% | ? | 15µM*
Cc1ccc(Cl)cc1N1CCN(C(=O)CN(C2CCCCC2)S(C)(=O)=O)CC1 | 8.2µM* | ? | -1% | -7% | 15µM*
CCNC(=O)CSc1nnc(-c2cccc(S(=O)(=O)N3CCOCC3)c2)o1 | -18% | / | -3% | 3% | 0%
CC/C(=N/N=C(/CC)c1ccc(O)cc1)c1ccc(O)cc1 | 8.2µM* | / | / | -2% | 15µM*
C/C=C(/C(=C/C)c1ccc(O)cc1)c1ccc(O)cc1 | ? | 11% | 9% | 30% | ?
CC(=NN=C(C)c1ccc(O)cc1)c1ccc(O)cc1 | 16µM* | / | / | -7% | ?
CCN(CC)S(=O)(=O)c1ccc(NC(=O)NCc2noc3ccc(C)cc23)cc1 | 23µM* | ? | 5% | / | 21µM*
Cc1cc(S(=O)(=O)Nc2ccc(C(=O)NCCCN3CCOCC3)cc2)ccc1F | -11% | / | / | 6% | -17%
Cc1ccc(C(NC(=O)N2CCCCC2)=C(Cl)Cl)cc1F | -34% | 0% | 3% | ? | 13µM*
Cc1ccc(C(NC(=O)NCCCN2CCOCC2)=C(Cl)Cl)cc1F | 13µM* | 24% | 0% | -9% | 11µM*
COc1ccc(NC(=O)COC(=O)[C@@H](NC(=O)c2c(F)cccc2F)C(C)C)cc1 | ? | 1% | 6% | 5% | -5%
COc1cccc(-c2csc(N3CCN(CC(=O)NNC(=O)c4ccc(Br)cc4)CC3)n2)c1 | 16µM* | 8% | 3% | -16% | ?
COc1ccc(NC(=O)N2CCN(S(C)(=O)=O)CC2)cc1 | ? | -1% | -3% | 2% | 23µM*
COc1cccc(-c2csc(N3CCN(CC(=O)NNC(=O)c4ccc(Cl)cc4)CC3)n2)c1 | ? | 6% | 4% | -13% | ?
COc1ccc(NC(=O)N2CCN(c3nc(-c4cccc(OC)c4)cs3)CC2)cc1 | 18µM* | 23% | 5% | / | 23µM*
COCCNC(=S)N1CCN(c2nc(-c3cccc(OC)c3)cs2)CC1 | ? | 16% | / | 3% | ?
CCNC(=S)N1CCN(c2nc(-c3cccc(OC)c3)cs2)CC1 | 15µM* | 17% | / | 8% | 10µM*
COc1ccc(-n2nc(C(=O)Nc3cc(C)ccn3)c3c4ccccc4n(C)c3c2=O)cc1 | -4% | 1% | -2% | / | -11%
COc1ccc(CCNC2=NCCS2)cc1OC | -12% | -14% | 4% | 0% | 16%
c1ccc(Cn2nnc3c(NCC4CCCO4)nc(C4CC4)nc32)cc1 (configuration not stated) | -16% | -1% | -1% | 8% | ?
COc1cccc(-c2csc(N3CCN(C(=S)NCC(C)C)CC3)n2)c1 | ? | 10% | / | -5% | 18µM*
ClC1(CNc2ccccc2)CCN(Cc2ccccc2)CC1 | -27% | / | / | -4% | -8%

Retrieved by structure from the list above:
SMILES | DT40 TDP1 no CPT | miR-21 reporter | TDP1 block | uPA surface inh | TDP1 cell CPT
COc1ccc(NC(=O)N2CCN(S(C)(=O)=O)CC2)cc1 | ? | -1% | -3% | 2% | 23µM*
COc1ccc(NC(=O)COC(=O)[C@@H](NC(=O)c2c(F)cccc2F)C(C)C)cc1 | ? | 1% | 6% | 5% | -5%

High-throughput results (PubChem BioAssay)
